Antibody variant affinities, Ab-14 light chain, assay B

From the AlphaSeq antibody data of Li et al. 2023 (doi:10.1038/s41467-023-39022-2), copy in the FLAb collection.

Target peptide (SARS-CoV-2 spike, HR2 region): PDVDLGDISGINAS

Ab-14 is the parent antibody, in scFv form: VH, then a 15-residue (Gly4Ser)3 linker, then VL. The heavy chain is unchanged in all variants.
VH: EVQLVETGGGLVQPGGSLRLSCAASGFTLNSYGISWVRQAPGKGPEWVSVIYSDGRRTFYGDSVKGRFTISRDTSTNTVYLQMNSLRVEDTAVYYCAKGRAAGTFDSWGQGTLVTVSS
VL: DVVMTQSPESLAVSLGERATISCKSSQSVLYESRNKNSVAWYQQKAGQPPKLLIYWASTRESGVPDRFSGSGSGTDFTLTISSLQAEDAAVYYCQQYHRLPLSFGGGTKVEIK

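The parent was found by panning a naive human phage display library on the peptide. Designed CDR sequences, proposed from the first random library and measured here. Their group label is 14L_GPLM_HC (GPLM: also part of the Gaussian process libraries; HC: hill climbing; a sequence that several methods proposed may carry one label only). AlphaSeq pools MATa yeast showing the antibodies with MATalpha yeast showing the peptide. Pairs that bind mate more often; barcode pairs of the diploids are counted by sequencing. A regression on co-assayed BCL2-family reference pairs converts the normalised counts of each replicate to an apparent Kd. Each pool was mated in six replicate cultures.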

Changes read parent residue, position, new residue, counted from the first residue of the VL shown.
Values are log10 of the apparent Kd in nM; lower means stronger binding.
An entry "ND" has no value in the source: the pair was not observed among the diploids in that replicate. This suggests poor binding but is not conclusive.

With V29D W56G the result was 0.11, -0.29, -0.21, -0.26, -0.16, -0.08 (controls 0 of 18).
With S25V R34V W56D the result was 0.09, -0.22, -0.11, -0.47, -0.08, -0.01 (controls 2 of 18).
With S25V W56D the result was -0.04, 0.23, 0.01, -0.21, -0.05, -0.04 (controls 3 of 18).
With S25L V29T the result was 1.87, ND, ND, ND, 3.83, 2.59 (controls 0 of 18).
With S25F S26R V29T W56G the result was 0.61, 0.40, 0.36, 0.53, 0.32, 0.70 (controls 3 of 18).
With R34V W56D the result was 0.17, 0.09, 0.04, -0.05, 0.04, 0.27 (controls 4 of 18).
With Y31G W56D the result was 0.06, -0.12, -0.08, -0.23, -0.22, -0.03 (controls 2 of 18).
With S26G S28G S38N W56G the result was -0.27, -0.29, -0.34, -0.58, -0.59, -0.22 (controls 0 of 18).
With S25Q V29I W56D the result was 0.09, -0.16, -0.23, -0.28, -0.26, 0.00 (controls 1 of 18).
With S26G S28G W56G S62T the result was 0.28, 0.09, -0.14, -0.09, -0.03, 0.06 (controls 2 of 18).
With S26G Q27S S28G W56G the result was 0.16, -0.17, -0.09, -0.45, -0.40, -0.07 (controls 1 of 18).
With V29E W56G the result was 0.40, 0.17, 0.80, 0.67, -0.03, 0.28 (controls 0 of 18).
With S28G V29W W56G the result was 0.16, 0.11, 0.16, -0.02, 0.15, -0.03 (controls 2 of 18).
With S25A W56G the result was 0.82, 0.46, 0.45, 0.41, 0.31, 0.65 (controls 1 of 18).
With V29Q W56G the result was 0.53, 0.74, 0.87, 0.62, 0.68, 0.70 (controls 1 of 18).
With R34G W56D the result was 0.23, 0.24, 0.23, -0.05, 0.20, 0.32 (controls 3 of 18).
With S25L S26G S28G W56G the result was -0.24, -0.47, -0.46, -0.46, -0.36, -0.30 (controls 1 of 18).
With S26G S28G W56N the result was 0.78, 0.77, 1.68, 0.48, 0.97, 0.96 (controls 2 of 18).
With V29G W56G P101T the result was 0.92, 1.06, 1.04, 0.66, 0.91, 1.20 (controls 0 of 18).
With S26G Q27N S28G W56G the result was 0.25, 0.03, 0.00, -0.07, 0.29, 0.19 (controls 1 of 18).
With Q27K Y31F W56D the result was 0.17, -0.11, -0.08, -0.07, -0.04, 0.38 (controls 1 of 18).
With S25L S26R V29T W56F the result was 0.69, 0.54, 0.66, 0.30, 0.34, 0.99 (controls 3 of 18).
With Q27I V29L W56E the result was 0.44, 0.30, 0.29, 0.20, 0.33, 0.54 (controls 0 of 18).
With V29K W56G P101T the result was -0.34, -0.31, -0.03, -0.45, -0.19, -0.14 (controls 1 of 18).
With K24H S25L W56N the result was 0.14, 0.04, -0.20, -0.13, 0.19, 0.13 (controls 1 of 18).
With S25Q W56N the result was 0.18, 0.17, 0.11, 0.29, 0.18, 0.23 (controls 0 of 18).
With S25Q W56Q the result was 0.30, -0.36, -0.13, 0.21, -0.39, -0.28 (controls 1 of 18).
With S25V Y31F W56D the result was 0.34, 0.15, 0.16, 0.08, -0.06, 0.32 (controls 1 of 18).
With S25F V29Y W56E the result was -0.14, -0.30, -0.06, -0.29, -0.15, -0.05 (controls 5 of 18).
With Q27Y V29G W56E the result was -0.25, -0.21, -0.33, -0.40, -0.34, -0.19 (controls 0 of 18).
With V29M W56G P101T the result was ND, ND, ND, ND, ND, ND (controls 0 of 18).
With Q27E V29Y W56E the result was -0.04, 0.06, -0.37, -0.14, -0.08, -0.08 (controls 3 of 18).
With S26L W56G S62D the result was 0.10, -0.17, -0.14, -0.24, -0.24, -0.08 (controls 3 of 18).
With V29W E32F W56G the result was 0.84, 0.67, 0.37, 0.77, 1.06, 0.93 (controls 1 of 18).
With S26G Q27G S28G W56G the result was 0.29, 0.08, 0.25, 0.10, 0.14, 0.22 (controls 2 of 18).
With Q27Y V29Y W56E the result was 0.17, 0.13, 0.13, -0.09, 0.13, 0.12 (controls 2 of 18).
With S26G S28G N37F W56G the result was 0.98, ND, ND, ND, ND, ND (controls 0 of 18).
With S25Q W56D H98E the result was 0.12, 0.19, -0.04, -0.01, 0.21, 0.28 (controls 1 of 18).

Picked from the list: the 4 lowest averages where every replicate gave a value.

changes,log10 Kd (nM) by replicate,control signals
S26G S28G S38N W56G,"-0.27, -0.29, -0.34, -0.58, -0.59, -0.22",0/18
S25L S26G S28G W56G,"-0.24, -0.47, -0.46, -0.46, -0.36, -0.30",1/18
Q27Y V29G W56E,"-0.25, -0.21, -0.33, -0.40, -0.34, -0.19",0/18
V29K W56G P101T,"-0.34, -0.31, -0.03, -0.45, -0.19, -0.14",1/18

In the paper, a design with two or fewer of six values counts as a poor binder.
Background: pairings of all light chain designs with three empty control strains gave a value in 4% of cases (median 2.64, 5th percentile 1.59). Values in that range, when seen in few replicates, are hard to tell from nonspecific mating. Also given: how often the same scFv was detected with the empty control strains.
Of ten entries with the parent sequence, four were seen in most replicates (averages 0.34 to 2.37), three in one and three in none, so single entries are noisy.
The range of this assay differs from that of the first round, and the authors advise against merging the two.